# Data taken from patent publication US20160158161A1.
# Key:
# [1] = stability of fentanyl in acrylate copolymer adhesives / stress storage; details: stress storage one month at 40° C./75% relative humidity; crosslinking agent added in presence of fentanyl
# [2] = oral; cited from earlier work
# [3] = migration of fentanyl into the carrier film on storage
smiles,measurement,setting,value
CCC(=O)N(c1ccccc1)C1CCN(CCc2ccccc2)CC1,"amount of impurity D (European Pharmacopeia) formed, based on fentanyl",[1],about 1%
same,bioavailability,[2],< 10%
same,active substance migrated into the carrier film,"[3]; PE film, less than one month at 40° C./75% relative humidity",8-10%
same,migration of active substance into the carrier film,[3]; PET (polyester) film,No migration was observed

# Only a part of the results on these compounds is given; other tests are left out.
